The assay addresses Adenosine receptor A3 (Rattus norvegicus, UniProt P28647). Put plainly: Affinity to Adenosine A3 receptor of rat testis membrane using [3H](R)-PIA with 150 nM DPCPX.

Protein sequences, listed by entry. Tags and fused reporters are not part of them.
UniProt P28647, whole entry: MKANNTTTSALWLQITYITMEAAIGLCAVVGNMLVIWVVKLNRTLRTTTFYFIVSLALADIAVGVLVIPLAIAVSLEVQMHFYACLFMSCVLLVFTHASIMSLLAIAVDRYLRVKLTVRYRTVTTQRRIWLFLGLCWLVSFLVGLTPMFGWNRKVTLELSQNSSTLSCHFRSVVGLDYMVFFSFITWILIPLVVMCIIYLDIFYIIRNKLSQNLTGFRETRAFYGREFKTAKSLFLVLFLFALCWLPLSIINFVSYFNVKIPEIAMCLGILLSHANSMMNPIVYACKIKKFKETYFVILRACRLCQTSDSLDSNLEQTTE

pKi: −log10 of the molar value.

As usually defined, the pKi is the Ki on a negative log10 scale, so that one unit is a factor of ten. A higher pKi goes with a low Ki. `OC[C@H]1O[C@@H](n2cnc3c(NC4CCCC4)ncnc32)[C@H](O)[C@@H]1O` [N6-CYCLOPENTYLADENOSINE] gave a negative-log Ki (pKi) of 6.59.

These data come from ChEMBL document CHEMBL1135881, “Ribose-modified nucleosides as ligands for adenosine receptors: synthesis, conformational analysis, and biological evaluation of 1'-C-methyl adenosine analogues” (J Med Chem, 2002).
